Laboratory results: patent US10526316B2, “Quinoxaline and pyridopyrazine derivatives as PI3Kβ inhibitors” (Janssen Pharmaceutica NV, priority 2015, dated 2020)
Like-named read-outs stand apart in the source and are kept apart here.

Key:
[1] = target: T1, PI3Kδ (Homo sapiens, UniProt O00329); assay: Enzyme binding assay (KINOMEscan, DiscoveRx)
T1 construct: purchased DiscoveRx Corporation, San Diego (contract service, KINOMEscan)
T1 sequence (O00329 1-1044): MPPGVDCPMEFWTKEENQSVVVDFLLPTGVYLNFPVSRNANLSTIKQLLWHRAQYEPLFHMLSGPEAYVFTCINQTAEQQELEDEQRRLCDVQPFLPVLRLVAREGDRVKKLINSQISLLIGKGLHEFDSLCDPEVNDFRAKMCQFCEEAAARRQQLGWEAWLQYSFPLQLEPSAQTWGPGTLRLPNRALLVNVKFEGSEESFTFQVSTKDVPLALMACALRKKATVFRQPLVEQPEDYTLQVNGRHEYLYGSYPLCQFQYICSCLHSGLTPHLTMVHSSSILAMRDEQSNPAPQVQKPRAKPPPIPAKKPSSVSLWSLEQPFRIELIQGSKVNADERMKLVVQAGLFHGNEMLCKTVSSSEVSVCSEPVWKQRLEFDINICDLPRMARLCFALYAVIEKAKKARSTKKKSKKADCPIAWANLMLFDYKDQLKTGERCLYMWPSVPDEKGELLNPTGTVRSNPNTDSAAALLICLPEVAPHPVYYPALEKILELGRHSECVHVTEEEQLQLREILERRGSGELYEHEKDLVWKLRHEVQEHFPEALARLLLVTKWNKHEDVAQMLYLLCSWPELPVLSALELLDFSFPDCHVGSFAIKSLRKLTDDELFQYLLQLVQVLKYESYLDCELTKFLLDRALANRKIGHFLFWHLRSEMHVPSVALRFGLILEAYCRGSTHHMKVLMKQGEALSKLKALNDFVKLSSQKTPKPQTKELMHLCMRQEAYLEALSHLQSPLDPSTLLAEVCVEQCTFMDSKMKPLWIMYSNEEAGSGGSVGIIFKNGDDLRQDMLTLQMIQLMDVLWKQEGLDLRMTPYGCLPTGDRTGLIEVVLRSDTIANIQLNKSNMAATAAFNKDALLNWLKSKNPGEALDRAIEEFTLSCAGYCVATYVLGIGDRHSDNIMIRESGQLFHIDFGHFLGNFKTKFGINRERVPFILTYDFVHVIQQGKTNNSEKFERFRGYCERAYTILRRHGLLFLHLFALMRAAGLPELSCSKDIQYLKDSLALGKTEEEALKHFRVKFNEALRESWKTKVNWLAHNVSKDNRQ
Method: (§1) Enzyme Binding Assays (KINOMEscan®)
Kinase enzyme binding affinities of compounds disclosed herein were determined using the KINOMEscan technology performed by DiscoveRx Corporation, San Diego, Calif., USA (www.kinomescan.com).

[2] = target: T2, kinase enzymes (Homo sapiens, UniProt P42336); assay: Enzyme binding assay (KINOMEscan, DiscoveRx), further kinases of Table A; settings: Kd PIK3Cα_h, PIK3Cα_h
T2 construct: purchased DiscoveRx Corporation, San Diego (contract service, KINOMEscan)
Method: as §1
(§2) Kinase enzyme binding affinities of compounds disclosed herein were determined using the KINOMEscan technology performed by DiscoveRx Corporation, San Diego, Calif., USA (www.kinomescan.com). Table A reports the obtained Kd values (nM), with the Kd being the inhibitor binding constant: […]

[3] = target: T3, kinase enzymes (Homo sapiens, UniProt P42345); assay: as above; settings: Kd MTOR_h, MTOR_h
T3 construct: purchased DiscoveRx Corporation, San Diego (contract service, KINOMEscan)
Method: as §1, §2

[4] = target: T4, kinase enzymes (Homo sapiens, UniProt P48736); assay: as above; settings: Kd PIK3Cγ_h, PIK3Cγ_h
T4 construct: purchased DiscoveRx Corporation, San Diego (contract service, KINOMEscan)
Method: as §1, §2

[5] = PIK3Cδ_h, read-out: Kd PIK3Cδ_h

Structure (SMILES) | Kd ([1]; Kd PIK3Cδ_h) [nM] | Kd [1, 5] [nM] | other results
C[C@@H](Nc1cc(F)cc(F)c1)c1cc(C(=O)NCCN(C)C)cc2ncc(N3CCOCC3)nc12 [Compound 184a] | 74 | – | –
C[C@@H](Nc1cc(F)cc(F)c1)c1cc(C(=O)NCCN(C)C)cc2ncc(N3CCOCC3)nc12 [Compound 184c] | 54 | – | –
CNCCN(C)C(=O)c1cc(C2CCCN2c2cc(F)cc(F)c2)c2nc(N3CCOCC3)cnc2c1 (stereo not drawn) [Compound 18] | – | – | Kd [2]: 5 nM; Kd [3]: 21900 nM; Kd [4]: 37 nM
C[C@@H](Nc1cc(F)cc(F)c1)c1cc(C(=O)NCCN(C)C)cc2ncc(N3CCOCC3)nc12 [Compound 184] | – | 57 | –
C[C@@H](Nc1cc(F)cc(F)c1)c1cc(C(=O)NCCN(C)C)cc2ncc(N3CCOCC3)nc12 [Compound 184b] | 66 | – | –
CC(Nc1cc(F)cc(F)c1)c1cc(C(=O)NCCN(C)C)cc2ncc(N3CCOCC3)nc12 (stereo not drawn) [Compound 183] | – | 102 | –
C[C@H](Nc1cc(F)cc(F)c1)c1cc(C(=O)NCCN(C)C)cc2ncc(N3CCOCC3)nc12 [Compound 185] | – | 5370 | –
